The record followed here is patent US8959984B2, “Proteome-wide quantification of small molecule binding to cellular target proteins” (priority 2007, dated 2015).

Chains of the proteins cited; added tags and fusions are not shown. Lines headed by an entry give the natural chain unless they say otherwise; changes in a name come on top. Residues count along the entry.
UniProt P11362, 22-822: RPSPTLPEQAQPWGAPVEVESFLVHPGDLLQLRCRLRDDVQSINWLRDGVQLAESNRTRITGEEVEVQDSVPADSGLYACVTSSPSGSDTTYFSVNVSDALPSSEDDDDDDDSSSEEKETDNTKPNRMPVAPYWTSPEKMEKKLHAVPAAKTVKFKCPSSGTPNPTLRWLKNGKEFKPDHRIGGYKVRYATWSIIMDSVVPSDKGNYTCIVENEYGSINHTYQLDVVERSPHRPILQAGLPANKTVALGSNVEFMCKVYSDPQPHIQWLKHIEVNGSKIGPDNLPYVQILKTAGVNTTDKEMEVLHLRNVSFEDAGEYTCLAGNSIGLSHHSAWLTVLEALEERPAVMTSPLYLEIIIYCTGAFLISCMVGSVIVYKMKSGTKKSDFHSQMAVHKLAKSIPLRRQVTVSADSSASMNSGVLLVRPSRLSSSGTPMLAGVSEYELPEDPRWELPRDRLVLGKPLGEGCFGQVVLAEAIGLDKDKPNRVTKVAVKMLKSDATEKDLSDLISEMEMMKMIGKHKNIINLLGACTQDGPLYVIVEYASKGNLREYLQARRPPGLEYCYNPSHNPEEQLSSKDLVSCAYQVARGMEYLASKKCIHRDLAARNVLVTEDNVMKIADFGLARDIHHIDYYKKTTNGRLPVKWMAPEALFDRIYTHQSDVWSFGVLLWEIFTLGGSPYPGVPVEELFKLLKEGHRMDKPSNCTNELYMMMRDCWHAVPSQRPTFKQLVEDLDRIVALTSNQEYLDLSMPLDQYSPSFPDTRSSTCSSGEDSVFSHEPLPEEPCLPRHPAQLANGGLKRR
UniProt P45984: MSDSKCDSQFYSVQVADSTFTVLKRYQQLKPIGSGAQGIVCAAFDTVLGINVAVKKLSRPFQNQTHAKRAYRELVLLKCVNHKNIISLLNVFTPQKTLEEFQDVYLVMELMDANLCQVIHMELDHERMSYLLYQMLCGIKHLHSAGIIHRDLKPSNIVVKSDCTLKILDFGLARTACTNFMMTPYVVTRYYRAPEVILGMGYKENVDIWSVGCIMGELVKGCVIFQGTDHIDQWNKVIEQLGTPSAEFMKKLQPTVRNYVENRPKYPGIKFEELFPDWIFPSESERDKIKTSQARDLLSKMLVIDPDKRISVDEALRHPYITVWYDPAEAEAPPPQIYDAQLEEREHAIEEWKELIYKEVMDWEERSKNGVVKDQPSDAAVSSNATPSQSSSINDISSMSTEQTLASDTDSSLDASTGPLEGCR
UniProt Q32MK0: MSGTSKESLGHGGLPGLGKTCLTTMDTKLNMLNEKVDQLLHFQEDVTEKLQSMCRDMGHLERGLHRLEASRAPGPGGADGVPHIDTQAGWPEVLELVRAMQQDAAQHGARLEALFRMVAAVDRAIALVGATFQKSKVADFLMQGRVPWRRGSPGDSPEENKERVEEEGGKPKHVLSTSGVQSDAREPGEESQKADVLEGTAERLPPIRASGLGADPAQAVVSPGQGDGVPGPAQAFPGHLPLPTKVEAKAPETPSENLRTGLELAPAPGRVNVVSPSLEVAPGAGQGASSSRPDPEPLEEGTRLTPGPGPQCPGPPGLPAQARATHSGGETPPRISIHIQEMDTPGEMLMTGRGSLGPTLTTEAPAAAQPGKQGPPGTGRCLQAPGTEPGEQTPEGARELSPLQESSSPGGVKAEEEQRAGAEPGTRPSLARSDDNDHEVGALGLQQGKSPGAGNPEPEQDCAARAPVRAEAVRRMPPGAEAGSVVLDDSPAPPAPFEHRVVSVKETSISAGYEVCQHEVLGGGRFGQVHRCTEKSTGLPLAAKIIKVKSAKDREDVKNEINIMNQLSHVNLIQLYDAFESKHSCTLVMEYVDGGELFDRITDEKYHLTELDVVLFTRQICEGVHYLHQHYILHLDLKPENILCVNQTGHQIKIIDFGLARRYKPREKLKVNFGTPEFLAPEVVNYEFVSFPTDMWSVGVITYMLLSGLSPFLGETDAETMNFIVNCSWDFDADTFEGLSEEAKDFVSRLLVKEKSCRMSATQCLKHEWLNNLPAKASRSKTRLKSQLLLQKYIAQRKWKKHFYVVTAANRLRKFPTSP
UniProt Q13188: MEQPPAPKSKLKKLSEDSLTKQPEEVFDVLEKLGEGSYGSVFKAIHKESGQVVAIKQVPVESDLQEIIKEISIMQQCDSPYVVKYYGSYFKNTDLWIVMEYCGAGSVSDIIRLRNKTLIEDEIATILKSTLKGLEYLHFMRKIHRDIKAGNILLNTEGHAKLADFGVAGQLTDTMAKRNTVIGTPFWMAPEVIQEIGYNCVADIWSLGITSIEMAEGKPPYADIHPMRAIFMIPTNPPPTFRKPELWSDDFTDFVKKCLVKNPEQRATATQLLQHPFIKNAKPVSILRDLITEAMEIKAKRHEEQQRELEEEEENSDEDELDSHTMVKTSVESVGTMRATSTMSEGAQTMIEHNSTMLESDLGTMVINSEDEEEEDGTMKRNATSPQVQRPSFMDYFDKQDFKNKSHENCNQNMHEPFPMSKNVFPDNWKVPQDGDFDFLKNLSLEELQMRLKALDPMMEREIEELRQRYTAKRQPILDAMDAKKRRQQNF
UniProt O75460, 19-977: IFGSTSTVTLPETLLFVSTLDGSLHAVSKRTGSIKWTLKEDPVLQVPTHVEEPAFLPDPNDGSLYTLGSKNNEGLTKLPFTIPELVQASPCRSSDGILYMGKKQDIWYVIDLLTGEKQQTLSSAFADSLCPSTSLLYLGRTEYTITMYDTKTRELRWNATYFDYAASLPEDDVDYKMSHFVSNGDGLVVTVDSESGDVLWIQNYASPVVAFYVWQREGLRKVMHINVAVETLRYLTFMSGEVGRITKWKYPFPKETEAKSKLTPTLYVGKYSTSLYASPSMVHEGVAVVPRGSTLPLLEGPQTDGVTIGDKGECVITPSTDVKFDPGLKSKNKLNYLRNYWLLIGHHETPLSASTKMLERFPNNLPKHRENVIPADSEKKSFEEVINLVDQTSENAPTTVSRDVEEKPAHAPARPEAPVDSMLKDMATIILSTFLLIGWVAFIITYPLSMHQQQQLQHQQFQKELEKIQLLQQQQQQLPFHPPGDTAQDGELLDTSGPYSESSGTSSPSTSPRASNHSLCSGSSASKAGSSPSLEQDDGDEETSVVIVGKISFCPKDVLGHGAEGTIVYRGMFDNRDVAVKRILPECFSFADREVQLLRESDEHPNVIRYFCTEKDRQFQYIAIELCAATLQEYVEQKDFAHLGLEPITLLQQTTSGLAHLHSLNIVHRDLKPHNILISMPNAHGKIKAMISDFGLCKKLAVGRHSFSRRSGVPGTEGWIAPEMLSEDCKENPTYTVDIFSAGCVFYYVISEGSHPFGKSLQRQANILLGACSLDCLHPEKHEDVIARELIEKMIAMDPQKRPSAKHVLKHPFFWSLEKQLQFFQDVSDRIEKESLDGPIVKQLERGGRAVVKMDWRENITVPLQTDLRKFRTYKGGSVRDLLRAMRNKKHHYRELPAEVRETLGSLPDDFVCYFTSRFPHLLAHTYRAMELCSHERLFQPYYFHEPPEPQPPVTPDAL
UniProt Q460N5, whole entry: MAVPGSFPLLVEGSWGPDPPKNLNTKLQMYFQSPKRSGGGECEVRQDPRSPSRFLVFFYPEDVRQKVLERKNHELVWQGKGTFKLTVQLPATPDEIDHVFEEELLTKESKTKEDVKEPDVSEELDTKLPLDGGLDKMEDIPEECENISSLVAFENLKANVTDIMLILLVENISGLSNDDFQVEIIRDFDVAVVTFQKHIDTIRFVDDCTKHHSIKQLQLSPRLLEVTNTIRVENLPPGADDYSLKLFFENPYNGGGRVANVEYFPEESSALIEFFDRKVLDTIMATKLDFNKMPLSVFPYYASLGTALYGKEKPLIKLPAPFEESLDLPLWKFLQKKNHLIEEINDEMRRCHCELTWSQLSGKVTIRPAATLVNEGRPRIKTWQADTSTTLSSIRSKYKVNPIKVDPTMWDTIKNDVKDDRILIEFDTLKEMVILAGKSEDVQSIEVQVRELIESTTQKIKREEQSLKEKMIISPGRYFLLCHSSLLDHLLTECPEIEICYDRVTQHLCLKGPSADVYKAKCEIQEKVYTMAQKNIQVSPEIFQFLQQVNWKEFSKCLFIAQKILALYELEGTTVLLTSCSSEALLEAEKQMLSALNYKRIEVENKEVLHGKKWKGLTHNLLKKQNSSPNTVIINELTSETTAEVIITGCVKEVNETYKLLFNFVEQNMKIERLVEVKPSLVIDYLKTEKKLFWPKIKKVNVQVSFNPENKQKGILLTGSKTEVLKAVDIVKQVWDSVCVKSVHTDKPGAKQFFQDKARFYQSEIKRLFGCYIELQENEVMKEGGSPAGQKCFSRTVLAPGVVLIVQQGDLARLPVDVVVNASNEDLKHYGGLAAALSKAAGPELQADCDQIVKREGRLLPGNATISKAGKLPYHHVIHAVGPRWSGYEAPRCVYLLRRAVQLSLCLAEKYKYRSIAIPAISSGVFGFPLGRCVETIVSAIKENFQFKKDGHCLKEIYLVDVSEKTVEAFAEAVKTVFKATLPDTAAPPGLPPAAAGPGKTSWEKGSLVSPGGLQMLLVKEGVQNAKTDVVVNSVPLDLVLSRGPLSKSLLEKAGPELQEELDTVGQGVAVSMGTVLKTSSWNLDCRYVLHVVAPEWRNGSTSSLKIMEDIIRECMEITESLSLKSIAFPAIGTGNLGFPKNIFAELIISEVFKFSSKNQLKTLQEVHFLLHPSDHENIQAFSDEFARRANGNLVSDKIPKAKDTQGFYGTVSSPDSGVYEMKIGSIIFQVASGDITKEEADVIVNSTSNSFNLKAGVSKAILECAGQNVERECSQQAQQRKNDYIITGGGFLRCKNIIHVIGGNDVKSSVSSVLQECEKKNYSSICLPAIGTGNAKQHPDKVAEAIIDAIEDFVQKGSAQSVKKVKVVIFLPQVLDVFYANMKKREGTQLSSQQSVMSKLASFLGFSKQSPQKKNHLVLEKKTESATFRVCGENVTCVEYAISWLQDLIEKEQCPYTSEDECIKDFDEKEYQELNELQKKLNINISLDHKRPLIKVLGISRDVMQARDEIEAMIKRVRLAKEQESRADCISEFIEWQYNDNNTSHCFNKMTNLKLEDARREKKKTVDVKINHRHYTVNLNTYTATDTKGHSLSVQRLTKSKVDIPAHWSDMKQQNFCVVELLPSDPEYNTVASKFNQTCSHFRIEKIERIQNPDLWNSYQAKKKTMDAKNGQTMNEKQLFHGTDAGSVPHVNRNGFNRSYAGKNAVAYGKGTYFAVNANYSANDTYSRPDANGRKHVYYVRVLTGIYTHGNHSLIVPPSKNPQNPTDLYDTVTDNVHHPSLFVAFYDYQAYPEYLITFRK
UniProt Q2M2I8: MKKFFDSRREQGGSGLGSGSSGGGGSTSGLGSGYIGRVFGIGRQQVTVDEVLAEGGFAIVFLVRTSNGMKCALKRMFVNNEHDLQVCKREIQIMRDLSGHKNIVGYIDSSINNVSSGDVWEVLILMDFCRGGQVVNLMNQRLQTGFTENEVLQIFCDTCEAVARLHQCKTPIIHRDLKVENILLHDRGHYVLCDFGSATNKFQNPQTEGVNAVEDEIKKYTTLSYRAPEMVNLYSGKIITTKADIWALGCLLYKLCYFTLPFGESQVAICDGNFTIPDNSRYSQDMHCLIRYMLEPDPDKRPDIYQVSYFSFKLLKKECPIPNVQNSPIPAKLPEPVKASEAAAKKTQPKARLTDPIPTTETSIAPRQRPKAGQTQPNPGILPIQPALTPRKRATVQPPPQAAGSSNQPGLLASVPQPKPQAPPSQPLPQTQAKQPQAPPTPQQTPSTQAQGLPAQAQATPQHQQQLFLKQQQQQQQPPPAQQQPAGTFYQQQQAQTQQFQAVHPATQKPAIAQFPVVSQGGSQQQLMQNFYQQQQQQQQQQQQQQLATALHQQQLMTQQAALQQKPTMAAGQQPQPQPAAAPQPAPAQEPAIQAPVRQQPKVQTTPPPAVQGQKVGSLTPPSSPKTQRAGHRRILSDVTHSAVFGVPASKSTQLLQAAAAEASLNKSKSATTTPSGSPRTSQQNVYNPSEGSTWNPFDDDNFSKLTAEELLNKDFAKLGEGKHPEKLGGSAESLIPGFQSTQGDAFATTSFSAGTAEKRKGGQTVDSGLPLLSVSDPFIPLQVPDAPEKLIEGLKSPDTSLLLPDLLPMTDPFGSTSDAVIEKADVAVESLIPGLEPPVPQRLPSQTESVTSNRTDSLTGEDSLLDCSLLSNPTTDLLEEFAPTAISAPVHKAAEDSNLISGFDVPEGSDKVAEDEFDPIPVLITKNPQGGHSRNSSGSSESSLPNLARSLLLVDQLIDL

What all share (assay): Ki determination for immobilized VI16742: two consecutive incubations, control beads, ligand concentration and incubation time controls (Tables 7, 8)
Holding throughout (assay type): binding

The target of test [1] is cellular target proteins in HeLa cell lysate (Homo sapiens, UniProt P11362). The conditions noted are these: Ki (VI16742), FGFR1 IPI00005142.
The target in test [2] is cellular target proteins in HeLa cell lysate (Homo sapiens, UniProt P29317). The conditions noted are these: Ki (VI16742), EphA2 (EPHA2) IPI00021267.
The target in test [3] is cellular target proteins in HeLa cell lysate (Homo sapiens, UniProt P45984). The conditions noted are these: Ki (VI16742), JNK2 (MAPK9) IPI00024673.
For test [4], the target named is T1, cellular target proteins in HeLa cell lysate (Homo sapiens, UniProt Q709F0).
T1 sequence (Q709F0 1-780): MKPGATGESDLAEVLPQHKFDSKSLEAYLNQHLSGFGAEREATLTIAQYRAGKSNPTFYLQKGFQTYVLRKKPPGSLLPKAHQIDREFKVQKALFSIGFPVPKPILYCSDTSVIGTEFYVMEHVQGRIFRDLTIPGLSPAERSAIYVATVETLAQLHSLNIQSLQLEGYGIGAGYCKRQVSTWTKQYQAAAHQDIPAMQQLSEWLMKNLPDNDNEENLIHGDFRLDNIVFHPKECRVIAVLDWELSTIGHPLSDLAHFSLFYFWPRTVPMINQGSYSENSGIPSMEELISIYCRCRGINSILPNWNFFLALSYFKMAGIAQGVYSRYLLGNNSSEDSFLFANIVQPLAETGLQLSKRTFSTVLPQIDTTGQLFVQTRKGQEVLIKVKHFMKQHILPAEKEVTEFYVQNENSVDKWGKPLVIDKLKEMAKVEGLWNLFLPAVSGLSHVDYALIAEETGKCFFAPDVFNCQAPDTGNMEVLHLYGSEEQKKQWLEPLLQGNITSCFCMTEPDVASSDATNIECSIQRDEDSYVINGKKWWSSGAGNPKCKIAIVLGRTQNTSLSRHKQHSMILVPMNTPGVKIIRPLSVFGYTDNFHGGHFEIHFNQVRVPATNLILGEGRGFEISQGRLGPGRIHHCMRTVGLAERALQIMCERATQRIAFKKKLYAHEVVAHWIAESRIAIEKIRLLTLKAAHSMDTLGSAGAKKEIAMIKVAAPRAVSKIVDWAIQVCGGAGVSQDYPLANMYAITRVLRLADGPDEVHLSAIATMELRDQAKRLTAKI
The following applies: Ki (VI16742), ACAD11 IPI00420065.

Test [5] deals with cellular target proteins in HeLa cell lysate (Homo sapiens, UniProt Q32MK0).
Test [6] deals with cellular target proteins in HeLa cell lysate (Homo sapiens, UniProt Q13188). The conditions noted are these: Ki (VI16742), MST2 (STK3) IPI00411984.
Test [7] has as its target cellular target proteins in HeLa cell lysate (Homo sapiens, UniProt O75460). The following applies: Ki (VI16742), IRE1 IPI00873141.
Test [8] has as its target cellular target proteins in HeLa cell lysate (Homo sapiens, UniProt Q460N5). The conditions noted are these: Ki (VI16742), PARP14 IPI00291215.
Test [9] concerns the target cellular target proteins in HeLa cell lysate (Homo sapiens, UniProt Q2M2I8). The following applies: Ki (VI16742), AAK1 IPI00479760.
Test [10] has as its target T2, cellular target proteins in HeLa cell lysate (Homo sapiens, UniProt Q96S44).
T2 sequence (Q96S44 1-253): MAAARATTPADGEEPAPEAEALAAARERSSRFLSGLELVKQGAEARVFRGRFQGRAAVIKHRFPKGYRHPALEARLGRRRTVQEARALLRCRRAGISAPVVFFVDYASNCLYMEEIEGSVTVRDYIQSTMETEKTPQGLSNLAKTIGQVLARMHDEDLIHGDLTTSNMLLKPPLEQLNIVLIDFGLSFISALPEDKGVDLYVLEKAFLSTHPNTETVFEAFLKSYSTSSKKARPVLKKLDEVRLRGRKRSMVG
The following applies: Ki (VI16742), PRPK (TP53RK) IPI00290305.

Molecules are shown by their SMILES.

Take `CC(C)n1c(=O)ccc2cnc(Nc3ccc(OCCN)cc3)nc21` [V16742]: the Ki in test [1] was found to be 23.2 µM; in [2], 54 µM; in test [3], 3.43 µM; in [4], 3.5 µM; in test [5], 3.66 µM; in test [6], 46.6 µM. The Ki in test [7] is 66.7 µM; in test [8], 42.5 µM; in test [9] it was 7.18 µM; in test [10] it was 19 µM.
